Measurements published in patent publication US11004539B2, “Predicting metabolic side effects of transported drugs” (The Regents of the University of California, priority 2016, dated 2021).

Target: T1, OAT3 (Mus musculus, UniProt O88909)
T1 sequence (O88909 1-537): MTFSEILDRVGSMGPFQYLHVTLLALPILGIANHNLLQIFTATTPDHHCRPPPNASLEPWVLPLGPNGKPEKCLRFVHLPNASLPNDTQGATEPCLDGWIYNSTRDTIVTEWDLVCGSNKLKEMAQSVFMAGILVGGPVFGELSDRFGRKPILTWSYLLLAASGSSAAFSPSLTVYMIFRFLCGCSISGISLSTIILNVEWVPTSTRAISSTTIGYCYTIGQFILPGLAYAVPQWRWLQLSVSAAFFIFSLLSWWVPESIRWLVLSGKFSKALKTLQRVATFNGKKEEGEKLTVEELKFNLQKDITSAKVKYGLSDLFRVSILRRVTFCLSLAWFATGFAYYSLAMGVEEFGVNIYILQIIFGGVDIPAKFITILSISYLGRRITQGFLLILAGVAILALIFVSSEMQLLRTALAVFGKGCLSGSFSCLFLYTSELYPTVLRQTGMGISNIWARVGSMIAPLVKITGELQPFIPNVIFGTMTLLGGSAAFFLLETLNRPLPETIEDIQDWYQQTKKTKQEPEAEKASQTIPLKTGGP
Test: Plasma metabolomics profiling of Oat3KO versus wild-type mice
Conditions: Oat3KO vs wild type mice

## gentisate
  change in plasma of the Oat3KO: significantly increased
